“And” between values parts separate entries of the source, which are not always exact repeats. Identical values can stand only once.
Columns and labels:
[1] = In vivo antitumor activity by i.p. administration against murine ADJ/PC6 (sc) plasmacytoma.; type: ADME, organism-based; settings: mouse, ip
Summary of the method: (§1)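 Murine solid ADJ/PC6 plasmacytoma (line 1: its subline selected for acquired cisplatin resistance), 1 mm3 fragments implanted sc. On day 20, single ip injection at halving doses as sonicated suspension in arachis oil. Tumours dissected and weighed 10 days later, treated vs control. ED90 = dose reducing tumour mass by 90%; therapeutic index = MTD/ED90; LD50 also reported.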

[2] = Therapeutic index is the ratio of LD50 and ED90 at which in vivo antitumor activity against acquired cisplatin resistant ADJ/PC6 plasmacytoma is observed.; type: ADME, organism-based, Plasma
Mus musculus = test: In Vivo Antitumor activity against the acquired cisplatin-resistant ADJ/PC6 Plasmacytoma (ADJ/PC6cisR) in mice; type: ADME, organism-based; summary of the method: as §1
[3] = Therapeutic index is the ratio of LD50 and ED90 at which in vivo antitumor activity against murine AD/PC6 sc plasmacytoma is observed.; type: organism-based, Plasma; settings: mouse

Row | Substance | LD50 [1] | further results
1 | trans-a-Ammine-b,d-dichloro-c,e-dihydrooxy-f-(ethylamine)-platinium (IV) | 50 mg/kg | 
2 | trans-a,f-Dichloro-b,d-bis(cyclohexylamine)-c,e-dihydroxo-platinium (IV) | > 100 mg/kg | 
3 | trans-a-ammine-b,d-dichloro-f-(cyclohexylamine)-c,e-bis-(ethylcarbamato)platinium (IV) | 465 mg/kg | 
4 | trans-a-Ammine-b,d-dichloro-c,e-dihydroxo-f-(quinuclidine)-platinium (IV) | 7.4 mg/kg | 
5 | trans-a-ammine-b,d-dichloro-f-(cyclohexylamine)-c,e-dihydroxoplatinium (IV) | 8.8 mg/kg and 10.5 mg/kg and 17.5 mg/kg | Therapeutic index [2]: 1.9; LD50 (Mus musculus): 8.8 mg/kg; Therapeutic index [3]: 11.6
6 | trans-Amminetetrachloro(quinuclidine)-platinium (IV) | 17.5 mg/kg | 
7 | trans-a-Ammine-b,d-dichloro-c,e-dihydroxy-f-(diethylamine)-platinium (IV) | 35 mg/kg | 
8 | trans-Amminetetrachloro(cyclohexylamine)-platinium (IV) | 14.5 mg/kg | 
